Reference: patent publication US5478807A, “Use of relaxin in the treatment of bradycardia” (Genentech, Inc., priority 1992, dated 1995)

System: rat isolated heart
Assay: Chronotropy and inotropy in Langendorff rat isolated heart
Details: doses above 150 pMol

`CNCC(O)c1ccc(O)c(O)c1.O=C(O)C(O)C(O)C(=O)O` (stereo not shown) [adrenaline, Adrenaline bitartrate, reference compound] was tested, and the “arrhythmia at higher doses” value was “excessive arrythmia”.
